Entries after “also recorded” stand apart in the source; their conditions may differ. Where two headings read alike, the source gives them in different places.
Columns and labels:
[1] = tested on: relapsed or refractory ALK-positive ALCL; conditions: 10 patients
[2] = tested on: relapsed or refractory ALK-positive ALCL; conditions: 10 patients; Kaplan-Meier
[3] = tested on: patients with ALK-positive ALCL
ALK-positive ALCL = conditions: cited from earlier work
[4] = tested on: relapsed or refractory ALK-positive ALCL; conditions: cited from earlier work
ALK-positive lymphoma = conditions: 18 patients with ALK-positive lymphoma; cited from earlier work

## CCc1cc2c(cc1N1CCC(N3CCOCC3)CC1)C(C)(C)c1[nH]c3cc(C#N)ccc3c1C2=O [alectinib]
[1]
  CR rate: 60%
  Objective response (CR + PR): 8 (80) n (%)
[1]; 300 mg orally twice a day (150 mg if <35 kg), best response
  Objective response rate (CR + PR): 80%
[2]
  1-year overall survival rate: 70.0%
  1-year progression-free survival rate: 58.3%
[3]; 10 patients
  Unexpected adverse events: No unexpected adverse events; also recorded: No unexpected AE
  Visual disturbance: not observed
[3]; n = 10
  Allergic rhinitis, All grades: 2 (20) n (%)
  Allergic rhinitis, Grade ≥ 3: 0 (0) n (%)
  Bronchitis, All grades: 2 (20) n (%)
  Bronchitis, Grade ≥ 3: 0 (0) n (%)
  Conjunctivitis, All grades: 2 (20) n (%)
  Conjunctivitis, Grade ≥ 3: 0 (0) n (%)
  Constipation, All grades: 3 (30) n (%)
  Constipation, Grade ≥ 3: 0 (0) n (%)
  Coughing, All grades: 2 (20) n (%)
  Coughing, Grade ≥ 3: 0 (0) n (%)
  Decreased neutrophil count, All grades: 2 (20) n (%)
  Decreased neutrophil count, Grade ≥ 3: 2 (20) n (%)
  Diarrhea, All grades: 4 (40) n (%)
  Diarrhea, Grade ≥ 3: 0 (0) n (%)
  Dry skin, All grades: 2 (20) n (%)
  Dry skin, Grade ≥ 3: 0 (0) n (%)
  Edema in extremities, All grades: 2 (20) n (%)
  Edema in extremities, Grade ≥ 3: 1 (10) n (%)
  Fever, All grades: 2 (20) n (%)
  Fever, Grade ≥ 3: 0 (0) n (%)
  Headache, All grades: 3 (30) n (%)
  Headache, Grade ≥ 3: 0 (0) n (%)
  Hyperuricemia, All grades: 2 (20) n (%)
  Hyperuricemia, Grade ≥ 3: 0 (0) n (%)
  Increased AST, All grades: 2 (20) n (%)
  Increased AST, Grade ≥ 3: 0 (0) n (%)
  Increased blood ALP, All grades: 4 (40) n (%)
  Increased blood ALP, Grade ≥ 3: 0 (0) n (%)
  Malaise, All grades: 2 (20) n (%)
  Malaise, Grade ≥ 3: 0 (0) n (%)
  Nausea, All grades: 2 (20) n (%)
  Nausea, Grade ≥ 3: 0 (0) n (%)
  Oral mucositis, All grades: 3 (30) n (%)
  Oral mucositis, Grade ≥ 3: 1 (10) n (%)
  Pain, All grades: 2 (20) n (%)
  Pain, Grade ≥ 3: 1 (10) n (%)
  Pruritus, All grades: 2 (20) n (%)
  Pruritus, Grade ≥ 3: 0 (0) n (%)
  Rash, All grades: 4 (40) n (%)
  Rash, Grade ≥ 3: 0 (0) n (%)
  Upper respiratory infection, All grades: 4 (40) n (%)
  Upper respiratory infection, Grade ≥ 3: 0 (0) n (%)
  Vomiting, All grades: 2 (20) n (%)
  Vomiting, Grade ≥ 3: 0 (0) n (%)
[3]; of 10 patients
  Patients in whom adverse events were observed: 10 patients
[3]; patients with ALK-positive ALCL who had progressed on standard chemotherapy
  Tolerability: well tolerated

## C[C@@H](Oc1cc(-c2cnn(C3CCNCC3)c2)cnc1N)c1c(Cl)ccc(F)c1Cl [crizotinib]
ALK-positive ALCL; dose of 280 mg/m2 twice daily
  Tolerability: well tolerated
ALK-positive ALCL; nine patients with ALK-positive ALCL (7/9)
  Complete remission (CR): 78%
ALK-positive ALCL; nine patients with ALK-positive ALCL (8/9)
  Overall response rate: 89%
[4]; 20 patients, dose of 280 mg/m2
  Overall response rate: 90%
[4]; across the crizotinib clinical trials
  AEs observed: visual disturbance
[4]; dose of 165 mg/m2
  Complete remission: 83%
[4]; dose of 280 mg/m2
  Complete remission: 80%
[4]; six patients, dose of 165 mg/m2
  Overall response rate: 83%
ALK-positive lymphoma
  CRs, number: eight
  Objective response rate: 53%

— paper PMC7734006 (Cancer Science, 2020)
